# Experimental data published in patent EP1202975B1, “SUBSTITUTED POLYCYCLIC ARYL AND HETEROARYL PYRAZINONES USEFUL FOR SELECTIVE INHIBITION OF THE COAGULATION CASCADE” (Pharmacia Corporation, priority 1999, dated 2000).
# Sequences of proteins named here, by UniProt entry; tags and fusion partners are left off. Residues count along the entry.
# UniProt P08709, 61-212 limits assumed: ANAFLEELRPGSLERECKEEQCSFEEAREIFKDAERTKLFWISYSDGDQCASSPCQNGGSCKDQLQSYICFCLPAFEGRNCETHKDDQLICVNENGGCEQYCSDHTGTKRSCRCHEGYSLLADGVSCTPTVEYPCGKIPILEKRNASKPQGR
# UniProt P08709, 213-466 limits assumed: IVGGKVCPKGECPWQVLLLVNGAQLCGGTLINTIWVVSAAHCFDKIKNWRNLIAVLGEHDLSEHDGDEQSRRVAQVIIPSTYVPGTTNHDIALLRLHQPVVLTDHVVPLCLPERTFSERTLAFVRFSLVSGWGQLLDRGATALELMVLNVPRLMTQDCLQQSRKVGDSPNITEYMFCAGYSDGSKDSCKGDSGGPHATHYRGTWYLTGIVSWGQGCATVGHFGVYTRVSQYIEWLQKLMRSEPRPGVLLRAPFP
# UniProt P00761, 9-231 limits assumed: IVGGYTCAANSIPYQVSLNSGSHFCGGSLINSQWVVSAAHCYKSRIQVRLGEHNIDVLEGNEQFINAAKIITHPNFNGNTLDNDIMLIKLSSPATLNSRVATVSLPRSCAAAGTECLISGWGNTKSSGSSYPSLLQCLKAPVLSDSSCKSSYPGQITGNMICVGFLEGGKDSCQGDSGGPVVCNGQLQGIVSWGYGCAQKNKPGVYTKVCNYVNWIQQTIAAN
# UniProt P00742, 41-179 limits assumed: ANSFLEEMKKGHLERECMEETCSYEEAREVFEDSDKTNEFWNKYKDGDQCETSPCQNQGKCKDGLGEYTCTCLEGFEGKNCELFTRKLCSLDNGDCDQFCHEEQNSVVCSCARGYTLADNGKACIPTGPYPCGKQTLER
# UniProt P00742, 235-488 limits assumed: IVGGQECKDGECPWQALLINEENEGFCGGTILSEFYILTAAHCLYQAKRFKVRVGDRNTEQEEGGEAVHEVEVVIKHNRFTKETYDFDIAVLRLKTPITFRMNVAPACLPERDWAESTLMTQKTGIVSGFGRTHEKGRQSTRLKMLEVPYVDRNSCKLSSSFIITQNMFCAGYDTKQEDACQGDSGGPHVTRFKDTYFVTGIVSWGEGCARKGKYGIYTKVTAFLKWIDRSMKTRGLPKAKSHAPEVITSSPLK
# UniProt P13726, 33-251 partner limits assumed: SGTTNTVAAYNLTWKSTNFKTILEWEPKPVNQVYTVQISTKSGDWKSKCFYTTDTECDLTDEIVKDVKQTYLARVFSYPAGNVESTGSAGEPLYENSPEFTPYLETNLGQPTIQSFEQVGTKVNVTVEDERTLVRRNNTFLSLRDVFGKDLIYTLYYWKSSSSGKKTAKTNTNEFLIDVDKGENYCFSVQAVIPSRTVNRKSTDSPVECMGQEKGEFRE
# pIC50: −log10 of the molar value.
# Experiments:
# TF-VIIa = TF-VIIa (Homo sapiens, UniProt P08709); experiment: TF-VIIa Assay; assay type: biochemical; conditions: read-out: IC50 or % Inhibition TF-VIIa (30 µM); cells given as a plain number (IC50)
# [1] = target: Trypsin (type IX from porcine pancreas) (Sus scrofa, UniProt P00761)
# Human factor Xa = Human factor Xa (Homo sapiens, UniProt P00742); experiment: Xa Assay; conditions: read-out: IC50 or % Inhibition Factor Xa (30 µM); cells given as a plain number (IC50)
pIC50 (TF-VIIa),pIC50 [1],pIC50 (Human factor Xa),SMILES
5.39,5.39,< 4.52,N=C(N)c1ccc(CNC(=O)Cn2c(-c3ccccc3C(F)(F)F)c(Cl)nc(NCCc3ccc(Cl)c(Cl)c3)c2=O)cc1
5.33,6.17,,CCc1c(Cl)nc(NCc2ccccc2)c(=O)n1CC(=O)NCc1ccc(C(=N)N)cc1
5.59,6.00,< 4.52,COc1cccc(-c2c(Cl)nc(NCCc3ccc(Cl)c(Cl)c3)c(=O)n2CC(=O)NCc2ccc(C(=N)N)cc2)c1
5.54,,< 4.52,N=C(N)c1ccc(CNC(=O)Cn2c(-c3cccc(F)c3)c(Cl)nc(NCCc3ccc(Cl)c(Cl)c3)c2=O)cc1
5.17,5.96,< 4.52,N=C(N)c1ccc(CNC(=O)Cn2c(-c3ccc(F)cc3)c(Cl)nc(NCCc3ccc(Cl)c(Cl)c3)c2=O)cc1
,5.15,,N=C(N)c1ccc(CCNC(=O)Cn2c(-c3ccccc3)c(Cl)nc(NCCc3ccccc3)c2=O)cc1
,,< 4.52,N=C(N)c1ccc(CNC(=O)Cn2c(-c3ccc(C(F)(F)F)cc3)c(Cl)nc(NCCc3ccc(Cl)c(Cl)c3)c2=O)cc1
4.97,,,N=C(N)c1ccc(CNC(=O)Cn2c(-c3ccccc3)c(Cl)nc(NCc3ccc4c(c3)OCO4)c2=O)cc1
5.74,5.85,< 4.52,COc1ccccc1-c1c(Cl)nc(NCCc2ccc(Cl)c(Cl)c2)c(=O)n1CC(=O)NCc1ccc(C(=N)N)cc1
5.51,5.74,< 4.52,N=C(N)c1ccc(CNC(=O)Cn2c(-c3ccccc3F)c(Cl)nc(NCCc3ccc(Cl)c(Cl)c3)c2=O)cc1
5.44,5.80,< 4.52,N=C(N)c1ccc(CNC(=O)Cn2c(-c3cccc(C(F)(F)F)c3)c(Cl)nc(NCCc3ccc(Cl)c(Cl)c3)c2=O)cc1
5.32,,< 4.52,N=C(N)c1ccc(CNC(=O)Cn2c(-c3cccc(Br)c3)c(Cl)nc(NCCc3ccc(Cl)c(Cl)c3)c2=O)cc1
5.36,5.62,< 4.52,N=C(N)c1ccc(CNC(=O)Cn2c(-c3ccccc3Cl)c(Cl)nc(NCCc3ccc(Cl)c(Cl)c3)c2=O)cc1
